{"source": "ChEMBL document CHEMBL4118270", "about": "“Synthesis, in vitro and in silico studies of novel potent urease inhibitors: N-[4-({5-[(3-Un/substituted-anilino-3-oxopropyl)sulfanyl]-1,3,4-oxadiazol-2-yl}methyl)-1,3-thiazol-2-yl]benzamides” (Bioorg Med Chem, 2018)", "molecular_target": "Urease (Helicobacter pylori) (UniProt Q0PXQ5)", "experiment": "Inhibition of Campylobacter pylori urease preincubated for 5 mins followed by urea addition measured after 10 mins by Berthelot assay relative to control", "set-up": "concentration or dose not given beside the values"}
{"smiles": "NC(N)=S", "note": "[THIOUREA]", "values": [{"measurement": "inhibition", "value": 98.1, "unit": "%"}]}
